Target: Neuronal acetylcholine receptor subunit alpha-7 (Homo sapiens, UniProt P36544)
Experiment: Antagonist activity at human alpha7 nAChR expressed in Xenopus oocyte assessed as inhibition of ACh-induced current at 10 uM after 30 secs by electrophysiological assay
Type: functional

Chains of the proteins cited; added tags and fusions are not shown. Residues count along the entry.
UniProt P36544, 23-502 limits assumed: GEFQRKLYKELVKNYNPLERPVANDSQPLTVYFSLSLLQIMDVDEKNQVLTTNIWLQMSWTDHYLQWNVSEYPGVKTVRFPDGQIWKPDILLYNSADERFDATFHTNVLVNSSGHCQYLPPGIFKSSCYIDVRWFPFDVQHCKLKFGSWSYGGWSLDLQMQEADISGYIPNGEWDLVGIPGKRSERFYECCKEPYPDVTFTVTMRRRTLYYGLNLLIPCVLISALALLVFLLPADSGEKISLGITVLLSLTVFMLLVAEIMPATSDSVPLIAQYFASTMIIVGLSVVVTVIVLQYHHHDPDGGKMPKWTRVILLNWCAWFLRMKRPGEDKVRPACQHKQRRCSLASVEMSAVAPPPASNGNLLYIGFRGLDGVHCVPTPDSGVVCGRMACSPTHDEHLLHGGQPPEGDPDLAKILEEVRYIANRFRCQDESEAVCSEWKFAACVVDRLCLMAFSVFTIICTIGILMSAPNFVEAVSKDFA

In the case of `O=C(N[C@@H]1CCCC[C@H]1N1CCCCC1)C1COc2ccccc2O1` (stereo partly specified), the inhibition is reported as 67%.

Source: ChEMBL document CHEMBL2062445, “Synthesis and nicotinic receptor activity of chemical space analogues of N-(3R)-1-azabicyclo[2.2.2]oct-3-yl-4-chlorobenzamide (PNU-282,987) and 1,4-diazabicyclo[3.2.2]nonane-4-carboxylic acid 4-bromophenyl ester (SSR180711)” (J Med Chem, 2012)
